We go through two substances from patent publication US12239719B2, “Fluorochemical targeted therapies” (MT RESEARCH, LLC, priority 2016, dated 2025).

Where two headings read alike, the source gives them in different places.

The subject of one series is Tumors (HCT116). Put plainly: Ex vivo Pearl imaging of removed tumors and tissues, tumor to liver ratio. It counts as in vivo. The settings on record: mice n=3. The protocol:
Tumors (HCT116) and other tissues were then removed from the mice (n=3) and the tumors and tissues were subjected to ex vivo Pearl® imaging. The tumor to liver ratio for each tumor was calculated.

The subject of another series is HCT 116 tumor. Put plainly: In vivo Pearl imaging, tumor to background ratio. The note with it: HCT 116 tumor-bearing mice, n=3, tail vein 200 μg cetuximab-IRDye-800CW, day 3. The protocol: HCT 116 tumor-bearing mice (n=3) were injected via tail vein with 200 μg of cetuximab-IRDye®-800CW (1) with 30% perflubron as an emulsion (PFCE) (100 μL of cetuximab-IRDye® 800CW at 2 mg/ml was combined with and 100 μL of 60% Perflubron emulsion to make it a 30% solution of Perflubron emulsion), or (2) without PFCE, in a total volume of 200 μL. The mice were then subjected to in vivo imaging at day 3 post-injection using a Pearl® Trilogy Small Animal imaging System (LI-COR Biosciences, Lincoln, NE). The tumor to background ratio (TBR) for each tumor was calculated.

A further series relates to SKOV-3/luc tumors. The settings on record: cited from earlier work.

In the case of “Cetuximab-IR800 (w/out PFCE): cetuximab labeled with near infrared dye IRDye 800CW, given without perflubron emulsion”, the “TBR at 3 days post-injection (Ex Vivo Tumor to Liver Ratio)” value in the series with Tumors (HCT116) is given as 2.5. The “TBR at 3 days post-injection (In Vivo TBR)” value in the series on HCT 116 tumor stood at 3.6.
“IR700 conjugated with trastuzumab: IR700 near infrared dye conjugated with trastuzumab (Sato and coworkers)”: the “relative luminescence units (RLU)” value was “recovered to post-treatment levels” in the series with SKOV-3/luc tumors (by day 14 post light treatment) and “lower relative luminescence units” with SKOV-3/luc tumors (day 4 post light treatment (100 J/cm2 NIR), compared to NIR-treated mice).
